Assays:
[1] = rat, in vivo
BCRP [2] = biological target: T1, BCRP (Homo sapiens, UniProt Q9UNQ0); conditions: HCMEC/D3 cells, AZT 1 μM, 120 min
BCRP [3] = biological target: T1, BCRP; conditions: MDCKII-BCRP cells

**Q.** For Fluorescein sodium, which “leakage of fluorescein sodium into brain (BBB integrity), BDL vs SO rats” value [1] is on record?
**A.** did not impair the integrity of the BBB

**Q.** Which “effect of coincubation with Ko143 on uptake of AZT” value (BCRP [2]) does the source give for Ko143 here?
**A.** markedly increased

**Q.** What about the “effect of incubation with Ko143 on uptake of AZT” value (BCRP [3]; AZT 1 μM, 120 min) of the same substance?
**A.** markedly increased

**Q.** With unconjugated bilirubin as the substance, how does the “effect of unconjugated bilirubin on uptake of AZT” value (BCRP [3]; unconjugated bilirubin 0, 10 and 25 μM) read?
**A.** concentration-dependently increased
